# Data from US20230399457A1, “Bioactive Synthetic Copolymer, Bioactive Macromolecule and Related Methods Thereof” (Agency for Science, Technology and Research, priority 2020, published 2023).
# Assay: Thermal stability by thermogravimetric analysis (TGA)
substance,measurement,value
arginine-glycine-aspartic acid [RGD],thermal degradation / significant mass loss temperature,181 °C
